Values of other authors, collected in patent US11744842B2, “Methods for the effective treatment of metastatic cancer” (General Oncology, Inc., priority 2012, dated 2023).

System: normal fibroblasts
Conditions: with the combination of BCNU and doxorubicin; cited from earlier work

N[C@@H](Cc1ccc(N(CCCl)CCCl)cc1)C(=O)O [melphalan]
change in melphalan cytotoxicity: No increase
